These results are taken from ChEMBL document CHEMBL1145308 (Bioorg Med Chem Lett, 2006).

Chains of the proteins cited; added tags and fusions are not shown. Lines headed by an entry give the natural chain unless they say otherwise; changes in a name come on top.
UniProt P41146: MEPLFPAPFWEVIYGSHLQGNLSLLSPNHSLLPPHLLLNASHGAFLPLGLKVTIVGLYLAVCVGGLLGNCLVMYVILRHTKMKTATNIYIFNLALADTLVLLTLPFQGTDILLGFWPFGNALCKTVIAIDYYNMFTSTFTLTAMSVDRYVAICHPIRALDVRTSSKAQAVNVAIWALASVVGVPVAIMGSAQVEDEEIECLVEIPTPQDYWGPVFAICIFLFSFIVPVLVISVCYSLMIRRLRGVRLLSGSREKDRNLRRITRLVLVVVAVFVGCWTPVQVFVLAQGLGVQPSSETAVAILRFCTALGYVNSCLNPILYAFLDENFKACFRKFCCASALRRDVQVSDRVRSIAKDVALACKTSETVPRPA
UniProt P35372, whole entry, looked up: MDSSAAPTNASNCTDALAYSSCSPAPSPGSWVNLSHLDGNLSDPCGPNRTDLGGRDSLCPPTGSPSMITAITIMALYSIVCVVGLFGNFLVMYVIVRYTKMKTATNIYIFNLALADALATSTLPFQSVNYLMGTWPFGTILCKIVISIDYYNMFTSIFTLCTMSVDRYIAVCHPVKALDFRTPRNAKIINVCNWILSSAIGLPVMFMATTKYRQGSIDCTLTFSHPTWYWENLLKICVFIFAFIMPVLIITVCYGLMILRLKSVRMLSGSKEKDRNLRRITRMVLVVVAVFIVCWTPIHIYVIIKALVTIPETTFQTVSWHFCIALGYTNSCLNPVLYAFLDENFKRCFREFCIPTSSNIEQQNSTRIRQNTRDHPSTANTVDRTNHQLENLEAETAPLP

Assay [1] has as its target Nociceptin receptor (Homo sapiens, UniProt P41146). Nature of the assay: Displacement of [3H]NOP from human NOP receptor expressed in HEK293 cells. (In general: Loss of bound radioactivity is the signal in a displacement assay; it reports binding, not function.)
Assay [2] concerns the target Mu-type opioid receptor (Homo sapiens, UniProt P35372). Nature of the assay: Displacement of [3H]naloxone from mu opioid receptor expressed in BHK cells.

Where “and” joins values, the source holds several entries; their conditions need not be identical. Identical values can stand only once. A value given as a limit tells only on which side of the number the result lay.

For the compound `O=C1NCC(c2ccc(F)cc2)C12CCN(C1(c3cccc(F)c3)CCCCC1)CC2` (racemic), the IC50 – broadly, the concentration at which inhibition is half-maximal – in assay [1] was over 10 µM; in assay [2], 7.18 µM.

For the compound `Cc1ccccc1C1(N2CCC3(CC2)C(=O)NCC3c2ccc(F)cc2)CCCCC1` (racemic), the values for the IC50 in assay [1] and in assay [2] were over 10 µM and 3.85 µM, respectively.

For the compound `O=C1NCC(c2ccccc2)C12CCN(C1(c3ccc(Cl)cc3)CCCCC1)CC2` (stereo not drawn), the IC50 in assay [1] was over 10 µM; in assay [2] it was 19.8 µM and 3.6 µM.

As for `Cc1ccc(C2(N3CCC4(CC3)C(=O)NCC4c3ccccc3)CCCCC2)cc1` (stereo not drawn), the IC50 in assay [1] was over 10 µM; in assay [2], 9.12 µM and 11.9 µM.

For `O=C1NCC(c2ccccc2)C12CCN(C1(c3cccc(F)c3)CCCCC1)CC2` (stereo not drawn), the IC50 in assay [1] was over 10 µM; in assay [2], 8.04 µM and 13.5 µM.

For the compound `CCCC1CNC(=O)C12CCN(C1(c3ccc(F)cc3)CCCCC1)CC2` (racemic), the half-inhibitory concentration (IC50) in assay [2] came to 3.03 µM.

As for `O=C1NCC(c2ccc(F)cc2)C12CCN(C1(c3ccc(F)cc3)CCCCC1)CC2` (stereo not drawn), the IC50 is over 10 µM in assay [1]; 7.8 µM and > 10 µM and 7.4 µM in assay [2].

For the compound `Cc1cccc(C2(N3CCC4(CC3)C(=O)NCC4c3ccc(F)cc3)CCCCC2)c1` (stereo not drawn), the half-maximal inhibitory concentration (IC50) was over 10 µM in assay [1]; 7.83 µM and 24.8 µM in assay [2].

With `O=C1NCC(c2ccccc2)C12CCN(C1(c3ccccc3)CCCCC1)CC2` (stereo not drawn), the IC50 is 6.15 µM and > 10 µM in assay [1]; 7.64 µM and 5.5 µM in assay [2].

Take `CCCC1CNC(=O)C12CCN(C1(c3ccccc3)CCCCC1)CC2` (stereo not drawn): the IC50 in assay [2] was 2.76 µM and 2.73 µM and 1.87 µM.
